# Literature values in patent publication US20180110743A1, “COMPOSITIONS AND METHODS FOR TREATING HEPATOCELLULAR CARCINOMA” (Northwestern University, priority 2015, published 2018).
# Tested on: activated P glycoprotein
# Settings: background statement; cited from earlier work
substance,measurement,value
"Amonafide [AMN, reference compound]",substrate for multi-drug resistance drug efflux pumps,not a substrate
